Data: PubChem BioAssay AID651635 (National Center for Advancing Translational Sciences (NCATS), 2012)
Only a part is listed here, and it is no random draw. Records with an inconclusive call do not appear. The source made the active and inactive calls. The call rests on the fitted dose curve; in most records, active means well fitted cell-killing curve with a large enough effect; inconclusive means small, poorly fitted or top-dose-only effect, or effect the other way; inactive means no such curve, though single readings can be large or run the other way.

Assay: Viability Counterscreen for Primary qHTS for Inhibitors of ATXN expression; further: nearly all actives have a fitted effect of over 40% in size
Settings: S2 cells (HEK-293 line with an ATXN2-luciferase reporter) viability, CellTiter-Fluor protease fluorescence, 24 h; series mostly up to 56.7 µM; activity change, negative = cytotoxicity: at the top concentration
Potency means the concentration at half of the fitted maximal effect.

Structure (SMILES) | activity change, negative = cytotoxicity | Potency
c1nnnn1CCn1cnnn1 | inactive: -29.4% | 
CC(C)C(=O)NC(Sc1ccccc1)C(Cl)(Cl)Cl (configuration not stated) | inactive: 16.4% | 
O=P(Nc1nccs1)(c1ccccc1)c1ccccc1 | inactive: -33.9% | 
O=C(OC1CN2CCC1CC2)c1cccc(Cl)c1 (configuration not stated) | inactive: -22.5% | 
C(Cc1nn[nH]n1)Cc1nn[nH]n1 | inactive: -14.4% | 
Nc1ccc([As](=O)(O)c2ccc([N+](=O)[O-])cc2)cc1 | inactive: -7.06% | 
O=[As](O)(c1ccccc1)c1ccc(O)cc1 | inactive: -10.1% | 
O=[N+]([O-])c1ncn(CCn2cnc([N+](=O)[O-])n2)n1 | inactive: -17.4% | 
CC(=O)NC(SC(=S)N(C)C)C(Cl)(Cl)Cl (configuration not stated) | inactive: -14.1% | 
O=P(Nc1nc2ccccc2s1)(c1ccccc1)c1ccccc1 | inactive: -12.8% | 
C[C@H]1OP(=O)(Oc2ccccc2)[C@H](O)[C@H](O)[C@H]1N=[N+]=[N-] (some centres not stated) | inactive: -7.82% | 
O=P(Nc1ccccn1)(c1ccc(Br)cc1)c1ccc(Br)cc1 | inactive: -33.5% | 
CN(C)C1(CNC(=O)c2ccc(Cl)c(S(N)(=O)=O)c2)CCCCC1 | inactive: -15.3% | 
COc1ccc(N)c([N+](=O)[O-])c1[N+](=O)[O-] | inactive: -6.24% | 
CC(NC(=O)COC(=O)C(O)(c1ccccc1)c1ccccc1)c1ccccc1 (configuration not stated) | inactive: -22.5% | 
Cc1ccccc1OP(=O)(Nc1ccccn1)Oc1ccccc1C | inactive: -31.6% | 
O=c1c2cc([N+](=O)[O-])ccc2[nH]c2c([N+](=O)[O-])cc([N+](=O)[O-])cc12 |  | active: 8.91 µM
CN(C)C(=O)Oc1noc2ccccc12 | inactive: -24.6% | 
O=C(OC1CN2CCC1CC2)c1ccccc1 (configuration not stated) | inactive: -15% | 
CCC(=O)N1C2C3N(C(=O)CC)C1C1N(C(=O)CC)C(C(N1C(=O)CC)N3C(=O)CC)N2C(=O)CC | inactive: -14.1% | 
COC(=O)c1cc2c(s1)N=C(c1ccccc1)N(C)P2(=O)N1CCOCC1 (configuration not stated) | inactive: -23.3% | 
Cc1ccc(OP(=O)(Nc2ccccn2)Oc2ccc(C)cc2)cc1 | inactive: 22.2% | 
CC(=O)NC(SC(=S)N(CC(C)C)CC(C)C)C(Cl)(Cl)Cl (configuration not stated) | inactive: -10.3% | 
c1ccc(-c2nn[nH]n2)c(-c2nn[nH]n2)c1 | inactive: 19.9% | 
Cc1ccc(NP(=O)(Oc2cccc(C)c2)Oc2cccc(C)c2)nc1 | inactive: -12.4% | 
CCNC(=S)/N=C(\N)N[N+](=O)[O-] | inactive: -8.18% | 

Structure (SMILES) | activity change, negative = cytotoxicity | Potency
O=C(NC1CCS(=O)(=O)C1)NP(=S)(Oc1ccccc1)Oc1ccccc1 (configuration not stated) | inactive: 29.9% | 
CC(=O)Nc1ccc([As](=O)(O)O)c(O)c1 | inactive: -13.4% | 
Cc1ccccc1CN(C)C(=O)COC(=O)C(O)(c1ccccc1)c1ccccc1 | inactive: 26.9% | 
C[C@H]1OP(=O)(Oc2ccccc2)C[C@@H]2O[C@@H]21 (some centres not stated) | inactive: -13.2% | 
C[C@@H]1C=CCP(=O)(Oc2ccccc2)O1 (some centres not stated) | inactive: -26.7% | 
COC(=O)C1(C)COP(=O)(NCc2ccccc2)OC1 (configuration not stated) | inactive: -25.7% | 
CC(C)(C)C(=O)NC(Sc1ccccc1)C(Cl)(Cl)Cl (configuration not stated) | inactive: 25.3% | 
O=P1(Nc2nc3ccc(Cl)cc3s2)COc2ccccc2O1 (configuration not stated) | inactive: -35.6% | 
CCOc1ccc(C2=NCC(CBr)S2)cc1 (configuration not stated) | inactive: -17.3% | 
O=[N+]([O-])C1C(O)C(O)C([N+](=O)[O-])C(O)C1O (configuration not stated) | inactive: -23.8% | 
Oc1ccccc1CNc1ccccn1 | inactive: -8.83% | 
O=C(NC(Sc1ccncn1)C(Cl)(Cl)Cl)c1ccccc1 (configuration not stated) | inactive: -3.01% | 
CC(C)CC(=O)NC(Sc1ccc(Cl)cc1)C(Cl)(Cl)Cl (configuration not stated) | inactive: 4.66% | 
CN1CCCC(OC(=O)C(c2ccccc2)c2ccccc2)C1 (configuration not stated) | inactive: -15.3% | 
CCNC(C)Cc1ccc2c(c1)OCO2 (configuration not stated) | inactive: 0.705% [at 126 µM] | 
Clc1ccc(Cl)c(NC2=NCC(CBr)S2)c1 (configuration not stated) | inactive: 14.1% | 
COc1ccccc1OP(=O)(Nc1ccc(C)cn1)Oc1ccccc1OC | inactive: -9.75% | 
CN(C(=O)Cc1ccc(Cl)c(Cl)c1)[C@H]1CCCC[C@H]1N1CCCC1 | inactive: -12.5% | 
Cc1ccc(N/C(=N/P(=O)(N2CCOCC2)N2CCOCC2)N2CCOCC2)cc1 | inactive: -27.4% | 
NC(=O)c1cc([N+](=O)[O-])cc([N+](=O)[O-])c1N | inactive: -5.93% | 
Nc1cccc2ccc([As](=O)(O)O)cc12 | inactive: -35.6% | 
CCN(N=Nc1nonc1N)c1nonc1N | inactive: -1.63% | 
Cc1cc(SC(NC(=O)c2ccc(F)cc2)C(Cl)(Cl)Cl)ncn1 (configuration not stated) | inactive: -32.1% | 
CCOP(=O)(Nc1ccccc1)OCC | inactive: -12.3% | 
Cc1ccc(NP(=O)(Oc2ccccc2F)Oc2ccccc2F)nc1 | inactive: -9.27% | 
CN(C(=O)Cc1ccc(Cl)c(Cl)c1)[C@H]1CCCC[C@@H]1N1CCCC1 | inactive: -28.8% | 

Structure (SMILES) | activity change, negative = cytotoxicity | Potency
O=P(Nc1nc2ccc(Cl)cc2s1)(c1ccccc1)c1ccccc1 | inactive: -17.7% | 
CN(C)P(=O)(N(C)C)n1c(Nc2ccccc2)nnc1-c1ccccc1 | inactive: -32.2% | 
CC(=O)Nc1ccc([As](=O)(O)O)cc1 | inactive: -29.9% | 
O=C(O)c1ccccc1[As](=O)(O)O | inactive: -38.9% | 
CCCC1OP(N)(=O)OCC1CC (configuration not stated) | inactive: -0.879% | 
O=C(O)CNc1ccc([As](=O)(O)O)cc1 | inactive: -29.5% | 
COC(=O)C1(C)COP(=O)(Nc2ccccc2)OC1 (configuration not stated) | inactive: -33.3% | 
O=[N+]([O-])c1cccc(NC2=NCC(CBr)S2)c1 (configuration not stated) | inactive: -25.1% | 
O=[N+]([O-])c1ncn(CCn2ncnc2[N+](=O)[O-])n1 | inactive: -31.2% | 
CC(C)(C)C(=O)NC(Sc1ccncn1)C(Cl)(Cl)Cl (configuration not stated) | inactive: 4.1% | 
O=C(Nc1cc([As](=O)(O)O)ccc1O)c1ccccc1 | inactive: -10.7% | 
O=P1(N(CCCl)CCCl)OCCCS1 (configuration not stated) | inactive: -11.6% | 
c1cc(-c2nn[nH]n2)ccc1-c1nn[nH]n1 | inactive: -13.8% | 
CC(C)c1nc(Nc2ccccc2)n(P(=O)(N(C)C)N(C)C)n1 | inactive: -41.7% | 
CC(C)=N/N=C(\N)N[N+](=O)[O-] | inactive: -28.5% | 
CCN(/C(=N/P(=O)(N1CCOCC1)N1CCOCC1)N1CCOCC1)c1ccc(OC)cc1 | inactive: 11.4% | 
Cc1ccc(NP(=O)(Oc2ccccc2)Oc2ccccc2)nc1 | inactive: -9.73% | 
CCc1nc2c(n1)c1c(non1O)c1c2no[n+]1[O-] |  | active: 15.8 µM
O=[N+]([O-])c1cccc2n[nH]nc12 | inactive: -7.84% | 
CC(=O)N1C2C3N(C(C)=O)C1C1N(C(C)=O)C(C(N1C(C)=O)N3C(C)=O)N2C(C)=O | inactive: -32.2% | 
COc1ccc(C2=NCC(CBr)S2)cc1 (configuration not stated) | inactive: -35.3% | 
O=C(OC1CN2CCC1CC2)c1cccc([N+](=O)[O-])c1 (configuration not stated) | inactive: 37.8% | 
CSc1ccc(Nc2c([N+](=O)[O-])cc([N+](=O)[O-])cc2[N+](=O)[O-])cc1 |  | active: 17.8 µM
CCOC(=O)c1ccc(NC(=O)C(C)(CCl)SC)cc1 (configuration not stated) | inactive: -21.3% | 
O=C(COc1ccccc1)OC1CN2CCC1CC2 (configuration not stated) | inactive: -25.4% | 
